Bioassay records (PubChem)
Yeast UUG start-1: modulators of start codon recognition fidelity in yeast. S. cerevisiae UUG-firefly luciferase reporter, luminescence/redox ratio. activity score, % at 18.7 µM. 0.13% of 350,000 active. AID 602363;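 active = replicate mean at a twofold rise or more, about +100% in these data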;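 also: firefly luciferase made from a UUG start codon reports start codon fidelity; reporter light over untreated wells divided by growth signal over untreated wells; some hits fall short of that in this replicate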
miR-122 sensor: miR-122 Renilla sensor signal increase in Huh7, primary screen, miR-122 inhibitor project, cell-based, single point, plate reader | AID 602342, 2012 | activation (reporter increase), % at 12.5 µM | 340,000 tested, 0.3% active | Huh7 miR-122 Renilla luciferase sensor, 48 h; neutral wells = 0, positive control = 100;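 active = mean replicate activation score at least 90 and every replicate individually at or above 90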;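 note: higher luciferase means less miR-122 activity so hits act as miR-122 inhibitors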
Cneo AK release: Cryptococcus neoformans cell lysis inducers, primary screen, AK release luminescence, single concentration; 360,000 tested, 0.2% active; lysis activity, % at 15 µM; AID 651654, 2012; C. neoformans lysis, adenylate kinase release luminescence, 4 h; normalised: neutral wells 0, clomiphene wells 100;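 active = mean lysis activity across replicates of at least 80%, whatever share of replicates individually reach that level; inactive = mean lysis activity below 80%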
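Material – log-phase Cryptococcus neoformans yeast cells · Input – 5 × 10^6 yeast cells/mL · Medium – fresh YPD growth medium · Doses – single compound concentration per well · Timing – static 4 h at 37 °C with compound, 1 h detection · Detection – adenylate kinase release luminescence · Read-out – signal increase indicating cell lysis · Control set – Clomiphene as positive lysis control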
C2C12 statin: suppressors of statin myotoxicity in C2C12 myotubes, primary screen, cell-based, single point, plate reader; C2C12 myotubes + simvastatin, ATP luminescence, 48 h; scaled: DMSO 0, geranylgeraniol control 100; rescue of ATP level, % at 7.49 µM; 330,000 tested, 0.78% active; AID 602340, 2012;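 active = mean ATP rescue above about 67%, or every replicate alone reaching that limit, limit read from the data, passing the limit was not always enough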;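 note: myotubes were challenged with 10 µM simvastatin during compound exposure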
Yeast UUG start-2: enhancers of UUG start codon usage in yeast, dose response, S. cerevisiae, UUG firefly luciferase, cherry-pick, set 2; shares compounds with Yeast UUG start-1; luminescence, 4 h; 100% means double the DMSO signal; activation, % at 38 µM; 540 tested, under 10 active;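 active = signal increase whose fitted curve reaches an absolute level of 40 at a concentration under 10 µM; inactive = activity opposite to the expected increase, or the rest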
Starred values were filed as active, the others as inactive; i = inactive; . = no result; [ ] = remark or other dose. An excerpt weighted towards active compounds, which were near 1.2% of everything screened.

SMILES | Yeast UUG start-1 | miR-122 sensor | Cneo AK release | C2C12 statin | Yeast UUG start-2
Cc1ccc(S(=O)(=O)N[C@H]2CC[C@@H](CCn3cc(-c4cccnc4)nn3)O[C@H]2CO)cc1 | . | . | -16.0 | -0.7 | .
CCCCC12CN3CC(C)(CN(C1)C3c1ccc([N+](=O)[O-])o1)C2=O (centres undefined) | 145.7* | -26.9 | -2.1 | -1.3 | 2.1
O=C(c1ccccc1F)N1C[C@H]2[C@@H](c3ccccc31)[C@H](CO)N2C(=O)C1CCCC1 | 2.5 | 21.4[16.7 µM] | -2.4 | -19.6 | .
O=C(c1ccccc1F)N1C[C@@H]2[C@H](c3ccccc31)[C@@H](CO)N2C(=O)C1CCCC1 | active | -7.1[16.7 µM] | -2.6 | -22.5 | i
O=C(Cc1ccccc1)N1C[C@H]2[C@@H](c3ccccc31)[C@@H](CO)N2C(=O)c1ccc(F)cc1 | 108.9* | 8.3[16.7 µM] | -2.7 | -8.3 | i
O=C(c1cccnc1)N1C[C@@H]2[C@H](c3ccccc31)[C@H](CO)N2C(=O)C1CCCC1 | 103.4* | 0.0[16.7 µM] | -4.1 | 9.1 | i
O=C(c1cccnc1)N1C[C@@H]2[C@H](c3ccccc31)[C@H](CO)N2C(=O)C1CCCCC1 | -10.3 | 26.9[16.7 µM] | 3.6 | -8.6 | .
CO[C@H]1CN(C)C(=O)c2ccc(NS(C)(=O)=O)cc2OC[C@@H](C)N(C(=O)CC2CC2)C[C@@H]1C | -15.2 | -4.7[16.7 µM] | 7.4 | 9.8 | .
Cn1c(=O)[nH]c(=O)c2c1nc(Br)n2C/C=N/NC(=O)c1ccccc1 | 136.2* | -3.6 | -2.9 | . | 0.0
CC(C)(C)c1ccc(C(=O)N2CCCCCC2=O)cc1 | 278.7* | -6.1 | -7.1 | -18.8 | 8.6
O=C1CCCCCN1C(=O)c1ccccc1 | . | 5.3 | . | -4.6 | .
O=c1[nH]c(/C=C\c2ccc(O)c(Cl)c2)nc(O)c1[N+](=O)[O-] | 166.7* | 0.0 | -2.6 | 9.7 | 1.7
CCCC(=O)Nc1ccc2c(c1)OC[C@H](C)N(Cc1nccs1)C[C@@H](C)[C@H](OC)CN(C)C2=O | . | . | . | 7.6 | .
CC(C)C#Cc1ccc2c(c1)O[C@@H](CN(C)Cc1cccnc1)[C@H](C)CN([C@@H](C)CO)S2(=O)=O | 72.2* | 10.2[16.7 µM] | -0.5 | -160.3 | i
CC(C)C#Cc1ccc2c(c1)O[C@H](CN(C)Cc1cccnc1)[C@H](C)CN([C@@H](C)CO)S2(=O)=O | -5.6 | 28.0[16.7 µM] | 0.2 | -81.6 | .
C[C@H]1CN([C@@H](C)CO)S(=O)(=O)c2ccc(C#CC3CCCC3)cc2O[C@H]1CN(C)Cc1cccnc1 | 141.8* | -4.4[16.7 µM] | 13.3 | -22.4 | i
CCC(=O)N1C[C@@H](O)COC[C@@H]2O[C@H](CC(=O)NCc3ccccc3Cl)CC[C@H]21 | . | -8.2[16.7 µM] | 1.2 | -13.8 | .
COc1ccc(NC(=O)Nc2ccc3c(c2)[C@@H]2C[C@@H](CC(=O)NCC4CC4)O[C@@H](CO)[C@@H]2O3)cc1 | 57.0* | 0.3[16.7 µM] | -4.5 | -4.0 | i
O=C(Nc1ccc(C(F)(F)F)cc1)Nc1ccc2c(c1)[C@H]1C[C@H](CC(=O)N3CCc4ccccc4C3)O[C@@H](CO)[C@H]1O2 | . | 4.0[16.7 µM] | 0.2 | -66.6 | .
O=C(C[C@@H]1C[C@H]2c3cc(NC(=O)NC4CCCCC4)ccc3O[C@H]2[C@H](CO)O1)NCc1ccccn1 | 75.0* | 5.5[16.7 µM] | 40.5 | -5.0 | i

Continued, starting with the last three of the part before.
SMILES | Yeast UUG start-1 | miR-122 sensor | Cneo AK release | C2C12 statin | Yeast UUG start-2
COc1ccc(NC(=O)Nc2ccc3c(c2)[C@@H]2C[C@@H](CC(=O)NCC4CC4)O[C@@H](CO)[C@@H]2O3)cc1 | 57.0* | 0.3[16.7 µM] | -4.5 | -4.0 | i
O=C(Nc1ccc(C(F)(F)F)cc1)Nc1ccc2c(c1)[C@H]1C[C@H](CC(=O)N3CCc4ccccc4C3)O[C@@H](CO)[C@H]1O2 | . | 4.0[16.7 µM] | 0.2 | -66.6 | .
O=C(C[C@@H]1C[C@H]2c3cc(NC(=O)NC4CCCCC4)ccc3O[C@H]2[C@H](CO)O1)NCc1ccccn1 | 75.0* | 5.5[16.7 µM] | 40.5 | -5.0 | i
COC(=O)C[C@H]1C[C@@H]2c3cc(NC(=O)CC4CC4)ccc3O[C@@H]2[C@@H](CO)O1 | 118.7* | -3.8[16.7 µM] | -6.3 | -7.0 | i
COC(=O)C[C@@H]1C[C@H]2c3cc(NC(=O)CC4CC4)ccc3O[C@H]2[C@@H](CO)O1 | -14.5 | -4.6 | 3.7 | -2.7 | .
O=C(Nc1ccc2c(c1)[C@@H]1C[C@@H](CC(=O)N3CCc4ccccc4C3)O[C@@H](CO)[C@@H]1O2)Nc1ccccc1F | 61.2* | -3.2[16.7 µM] | -2.0 | -7.7 | i
COc1ccc(NC(=O)Nc2ccc3c(c2)[C@H]2C[C@H](CC(=O)NCC4CC4)O[C@H](CO)[C@H]2O3)cc1 | -2.5 | 3.9[16.7 µM] | -7.3 | -11.0 | .
O=C(Nc1ccccc1)[C@@H]1[C@@H](CO)[C@@H]2Cn3c(cccc3=O)[C@@H]2N1CC1CC1 | 15.6 | 2.2[16.7 µM] | 4.2 | -12.5 | .
